The list shows a part of the results, in another mix than the full data. Activity calls are given as the source filed them.

This assay is described as follows: UUG initiation codon usage in yeast – whole organism, S. cerevisiae, single point, plate reader, primary screen (AID 602363).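 Note: firefly luciferase made from a UUG start codon reports start codon fidelity.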 The following applies: S. cerevisiae UUG-firefly luciferase reporter, luminescence/redox ratio; at 18.7 µM; hits give high values. A general note: In a reporter assay the amount or activity of a reporter protein is the signal.
With `CC1=C2N=C(C=C3N=C(C(C)=C4[N-][C@@](C)([C@@H]5N=C1[C@](C)(CCC(=O)NC[C@@H](C)OP(=O)([O-])O[C@H]1[C@@H](O)[C@@H](n6cnc7cc(C)c(C)cc76)O[C@@H]1CO)[C@H]5CC(N)=O)[C@@](C)(CC(N)=O)[C@@H]4CCC(N)=O)[C@@](C)(CC(N)=O)[C@@H]3CCC(N)=O)C(C)(C)[C@@H]2CCC(N)=O.[C-]#N.[Co+3]`, the activity score is inactive: -14.7%.

For the origin of these results see PubChem BioAssay AID602363 (Broad Institute, 2012).
